From patent US12077555B2, “STAT degraders and uses thereof” (Kymera Therapeutics, Inc., priority 2019, dated 2024)

Amino acid sequences for entries named in this document (tags omitted).
UniProt P40763, whole entry: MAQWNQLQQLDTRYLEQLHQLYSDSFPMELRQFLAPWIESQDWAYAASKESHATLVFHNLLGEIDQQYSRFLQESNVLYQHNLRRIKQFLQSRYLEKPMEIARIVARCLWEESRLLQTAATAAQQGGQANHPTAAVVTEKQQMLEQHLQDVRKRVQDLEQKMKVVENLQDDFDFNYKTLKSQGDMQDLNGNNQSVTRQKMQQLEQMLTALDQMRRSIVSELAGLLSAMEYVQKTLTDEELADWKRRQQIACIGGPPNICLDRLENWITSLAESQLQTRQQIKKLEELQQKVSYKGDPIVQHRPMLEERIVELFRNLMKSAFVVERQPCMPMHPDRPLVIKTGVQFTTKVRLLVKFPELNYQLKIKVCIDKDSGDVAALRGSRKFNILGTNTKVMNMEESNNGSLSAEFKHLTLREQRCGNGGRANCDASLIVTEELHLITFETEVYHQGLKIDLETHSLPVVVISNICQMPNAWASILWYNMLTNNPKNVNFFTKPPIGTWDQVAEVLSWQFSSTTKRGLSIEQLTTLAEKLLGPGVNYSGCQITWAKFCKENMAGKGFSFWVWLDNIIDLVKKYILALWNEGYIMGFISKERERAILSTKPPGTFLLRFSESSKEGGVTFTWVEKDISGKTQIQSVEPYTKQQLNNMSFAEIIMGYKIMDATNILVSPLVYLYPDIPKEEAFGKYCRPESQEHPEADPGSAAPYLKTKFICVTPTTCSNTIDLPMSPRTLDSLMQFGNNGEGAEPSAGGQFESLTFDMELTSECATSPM

Columns and labels:
[1] = target: T1, STAT3 (Homo sapiens, UniProt P40763); test: Quantitation of STAT3 degradation in A549 cells by Western blot; assay type: cell-based
Experimental: Degradation of total cellular STAT3 protein in A549 was quantitatively measured using SDS-PAGE and Western blot analysis. A549 cells (5×10^5 cells/well, 2 mL) were seeded into 6-well plates and were incubated in the incubator under 5% CO2 overnight to reach ˜80% confluency. The next day, the culture medium was changed with 1 ml fresh media. Then, 1 mL of media containing 2× compound solution was added into the well to make the final concentration of 30 μM, 10 μM, 3 μM, 1 μM, 0.3 μM and 0 μM (DMSO). The media was thoroughly mixed and incubated for 24 hours at 37° C. under 5% CO2. Then, the culture media was removed from the assay plates and the cells were washed with ice-cold PBS twice. To prepare cell lysates, 200 ul pre-chilled RIPA lysis buffer (Boston BioProducts BP-115D) with protease/phosphatase inhibitor (Roche 05892791001/Roche 04906837001) was added directly into the well to lyse the cells for 20 minutes on ice. The cell lysates were then transferred to centrifuge tubes. Insoluble part of lysates was removed by centrifuging the lysates at 13000 rpm for 20 minutes. The supernatant was then collected and mixed with 5× loading buffer (Beyotime Bio P0015) to make the final samples for SDS-PAGE analysis. The samples were heated at 100° C. for 10 minutes and cool to room temperature before centrifuging at 13000 rpm for 20 minutes. To analyze the samples by SDS-PAGE, 10 ul samples were loaded onto SDS-PAGE gel (Novex, WG1403BOX) and the SDS-PAGE gel was run for 20 minutes at 80 V, then at 120 V for 1.5 hours. The SDS-PAGE gel was then transferred to nitrocellulose membrane using the wet-transfer method at 250 mA for 1.5 hours. The membrane was then blocked with LI-COR blocking buffer (LI-COR, 927-50000) for 1 hour and was probed with primary antibody (mouse anti-STAT3 (124H6) (CST #91395) 1:2000 or mouse anti-beta-Actin (8H10D10) (CST #3700) 1:10000) at 4° C. overnight. The membrane was then washed three times with TBST buffer and probed with secondary antibody (anti-mouse IgG (LI-COR, 926-68070), 1:5000) for 1 hour at room temperature. The membrane was then scanned on a LI-COR Odyssey instrument and was quantified using Image Studio Version 5.2. Concentration at 50% degradation (DC50) was calculated by fitting dose dependent degradation data using a sigmoidal equation using GraphPad Prism Version 8.0.

[2] = target: T1, STAT3; test: STAT3 HiBiT degradation assay in transfected A549 cells; details: read-out: STAT3 HiBiT A549 degradation 24 h: Average external-Abs DC50, A549, 24 h
Experimental: Compound preparation and Cell seeding: The transfected A549 cells were harvested from dish into cell culture medium and cell numbers counted. Cells were diluted with culture medium to the desired density and 30 μL of cell suspension (about 2000 cells/well) were added into each well of a 384-well cell culture plate as designated and transferred into 37° C. 5% CO2 incubator for 24 h. Compounds were dissolved to 10 mM stock solution and 12 μL of the stock solution was transferred to a 384 LDV-plate. 3 fold, 10-point dilution was performed by transferring 4 μL compound into 8 μL DMSO using a TECAN (EVO200) liquid handler. 30 μL of diluted compound from compound source plate was transferred into the cell plate as designated by using Echo550 and transferred into 37° C. 5% CO2 incubator for 24 h.
Detection: Plates were removed from incubators and equilibrated at room temperature for 15 minutes. Nano-Glo Hibit Lytic Detection reagent (Promega Cat #N3040) was thawed and equilibrated to room temperature before the experiment. 30 μL of Nano-Glo Hibit Lytic Detection reagent was added into each well to be detected. The plates were held at room temperature for 10 min followed by reading on EnSpire.
Data analysis: The remaining activity was calculated following the formula: Remaining Activity (%)=100%×(Lumsample−LumNC)/(LumPC−LumNC). […]

[3] = tested on: SU-DHL-1 tumor cells; test: Xenograph tumor study, SU-DHL-1; details: SUDHL-1 xenograph, IP, 2.5-30 mg/kg, 2 days on/5 days off, tested form: diammonium
Experimental: Animals: 50 6-8 week old female NOD SCID mice weighing 18 to 20 grams. 25 mice were used in each study.
Method for Tumor Inoculation: Each mouse was inoculated subcutaneously with SU-DHL-1 tumor cells (1×107+Matrigel) or SUP-M2 tumor cells (5×106+Matrigel) in 0.1 ml of RPMI1640 medium supplemented with 10% FBS, 100 U/ml penicillin and […] streptomycin for tumor development. Mice were then assigned to groups such that the mean tumor volume was the same for each treatment group and time point. […] Vehicle was 25% HP-β-CD in water adjusted to pH 7.4.
Measurement Parameters: Study animals were monitored not only for tumor growth but also behavior such as mobility, food and water consumption (by cage side checking only), body weight (BW), eye/hair matting and any other abnormal effect. Any mortality and/or abnormal clinical signs was recorded. Sponsor was notified immediately if abnormal clinical signs, or if tolerability issues were observed. Body weights of all animals were measured and recorded twice per week. The measurement of tumor size was conducted twice weekly with a caliper and recorded. The tumor volume (mm3) was estimated using the formula: TV=a×b2/2, where “a” and “b” are long and short diameters of a tumor, respectively.

[4] = read-out: A549 DC50, 24 hours, tested up to 30 μM or 10 μM
[5] = read-out: A549 DC50, 24 hours, tested up to 30 μM or 10 μM, tested form: diammonium

Structure (SMILES)	DC50 [1, 4]	DC50 [1, 5]	further results
C/C(=C\C(=O)N[C@H]1CCc2cccc3c2N(C1=O)[C@H](C(=O)N[C@@H](CCC(N)=O)[C@@H](C)OCc1ccc(CCCNC(=O)COCCOCCOCCCc2ccc4c(c2)n(C)c(=O)n4C2CCC(=O)NC2=O)cc1)C3)c1ccc(C(F)(F)P(=O)(OCOC(=O)C(C)(C)C)OCOC(=O)C(C)(C)C)cc1 (stereo partly shown)	> 30 µM		
Cc1ncsc1-c1ccc(CNC(=O)[C@@H]2C[C@@H](O)CN2C(=O)[C@@H](NC(=O)CCCCCCCCCC(=O)N2CC[C@H]3CC[C@@H](C(=O)N[C@@H](CCC(N)=O)C(=O)NC(c4ccccc4)c4ccccc4)N3C(=O)[C@@H](NC(=O)c3cc4cc(C(=O)P(=O)(O)O)ccc4[nH]3)C2)C(C)(C)C)cc1			DC50 [2]: > 1 µM
CNC(=O)CC[C@H](NC(=O)[C@@H]1Cc2cccc3c2N1C(=O)[C@@H](NC(=O)/C=C(\C)c1ccc(C(F)(F)P(=O)(O)O)cc1)CC3)[C@@H](C)OCc1ccc(CCCCC(=O)N[C@H](C(=O)N2C[C@H](O)C[C@H]2C(=O)NCc2ccc(-c3scnc3C)cc2)C(C)(C)C)cc1		> 30 µM	
CC(=O)N1CC[C@H]2CC[C@@H](C(=O)N[C@@H](CCC(N)=O)COc3cccc(CCCCCC(=O)N[C@H](C(=O)N4C[C@H](O)C[C@H]4C(=O)N[C@@H](C)c4ccc(-c5scnc5C)cc4)C(C)(C)C)c3F)N2C(=O)[C@@H](NC(=O)c2cc3cc(C(=O)P(=O)(O)O)ccc3[nH]2)C1			DC50 ([2]; tested form: diammonium): < 0.01 µM; tumor volume, 5 days ([3]; 5 days): A (A<500 mm^3); tumor volume, 10 days ([3]; 10 days): A (A<500 mm^3); tumor volume, 15 days ([3]; 15 days): A (A<500 mm^3); tumor volume, 20 days ([3]; 20 days): A (A<500 mm^3)
C/C(=C\C(=O)N[C@H]1CCc2cccc3c2N(C1=O)[C@H](C(=O)N[C@@H](CCC(N)=O)[C@@H](C)OCc1ccc(CCCNC(=O)CCc2ccc4c(c2)n(C)c(=O)n4C2CCC(=O)NC2=O)cc1)C3)c1ccc(C(F)(F)P(=O)(OCOC(=O)C(C)(C)C)OCOC(=O)C(C)(C)C)cc1 (stereo partly shown)	> 30 µM		
Cc1ncsc1-c1ccc(CNC(=O)[C@@H]2C[C@@H](O)CN2C(=O)[C@@H](NC(=O)CCCCCc2ccccc2CO[C@H](C)[C@H](CCC(N)=O)NC(=O)[C@@H]2Cc3cccc4c3N2C(=O)[C@@H](NC(=O)c2cc3cc(C(=O)P(=O)(O)O)ccc3[nH]2)CC4)C(C)(C)C)cc1		< 30 µM	
C/C(=C\C(=O)N[C@H]1CCc2cccc3c2N(C1=O)[C@H](C(=O)N[C@@H](CCC(N)=O)[C@@H](C)OCc1ccc(CCCOCCOCCCc2cccc4c2n(C)c(=O)n4C2CCC(=O)N(C)C2=O)cc1)C3)c1ccc(C(F)(F)P(=O)(OCOC(=O)C(C)(C)C)OCOC(=O)C(C)(C)C)cc1 (stereo partly shown)	> 30 µM		
C/C(=C\C(=O)N[C@H]1CCc2cccc3c2N(C1=O)[C@H](C(=O)N[C@@H](CCC(N)=O)[C@@H](C)OCc1ccc(CCCCC(=O)N[C@H](C(=O)N2C[C@H](O)C[C@H]2C(=O)N[C@@H](C)c2ccc(-c4scnc4C)cc2)C(C)(C)C)cc1)C3)c1ccc(C(F)(F)P(=O)(O)O)cc1		< 30 µM	
C/C(=C\C(=O)N[C@H]1CCc2cccc3c2N(C1=O)[C@H](C(=O)N[C@@H](CCC(N)=O)[C@@H](C)OCc1ccc(CCCCCOc2cc(-c4scnc4C)ccc2CNC(=O)[C@@H]2C[C@@H](O)CN2C(=O)[C@@H](NC(=O)C2(F)CC2)C(C)(C)C)cc1)C3)c1ccc(C(F)(F)P(=O)(OCOC(=O)C(C)(C)C)OCOC(=O)C(C)(C)C)cc1	> 30 µM		
